The target in experiment [1] is T1, sucrase (Rattus norvegicus, UniProt P23739).
T1 construct: Sucrase and maltase were obtained from the intestinal brush border of Wistar rats; from tissue; host or cells: intestinal brush border of Wistar rats
The experiment can be described thus: α-glucosidase inhibition assay, sucrase (sucrose substrate, glucose oxidase readout). The class given is biochemical, Wistar rats. The procedure: (§1) Sucrase and maltase were obtained from the intestinal brush border of Wistar rats. […] Each stock solution was prepared with distilled water. All other solvents and chemicals were of analytical purity.
The modified inhibitory screening system was used to determine inhibitory activity on α-glucosidase. Selected starch, sucrose, and maltose were used as α-glucosidase substrates instead of p-nitrophenyl glucopyranoside. Maltase and sucrase were pre-incubated with different concentrations of compound (0.004–400 μmol/L) at 37 °C for 8 min, and the substrate was then added into initiate the reaction. After incubation at 37 °C for 40 min, 150 μL of glucose oxidase solution was added to each mixture and incubated at 37 °C for 40 min. […] Inhibitory percentage values were calculated using the formula: %Inhibition = (B − C)/B × 100, where B is the formation of glucose under the enzyme without compound and C is the formation of glucose with compound.

Sequences of proteins named here, by UniProt entry; tags and fusion partners are left off. A change or cut given only in a name is not applied to a line headed by its entry.
UniProt P23739: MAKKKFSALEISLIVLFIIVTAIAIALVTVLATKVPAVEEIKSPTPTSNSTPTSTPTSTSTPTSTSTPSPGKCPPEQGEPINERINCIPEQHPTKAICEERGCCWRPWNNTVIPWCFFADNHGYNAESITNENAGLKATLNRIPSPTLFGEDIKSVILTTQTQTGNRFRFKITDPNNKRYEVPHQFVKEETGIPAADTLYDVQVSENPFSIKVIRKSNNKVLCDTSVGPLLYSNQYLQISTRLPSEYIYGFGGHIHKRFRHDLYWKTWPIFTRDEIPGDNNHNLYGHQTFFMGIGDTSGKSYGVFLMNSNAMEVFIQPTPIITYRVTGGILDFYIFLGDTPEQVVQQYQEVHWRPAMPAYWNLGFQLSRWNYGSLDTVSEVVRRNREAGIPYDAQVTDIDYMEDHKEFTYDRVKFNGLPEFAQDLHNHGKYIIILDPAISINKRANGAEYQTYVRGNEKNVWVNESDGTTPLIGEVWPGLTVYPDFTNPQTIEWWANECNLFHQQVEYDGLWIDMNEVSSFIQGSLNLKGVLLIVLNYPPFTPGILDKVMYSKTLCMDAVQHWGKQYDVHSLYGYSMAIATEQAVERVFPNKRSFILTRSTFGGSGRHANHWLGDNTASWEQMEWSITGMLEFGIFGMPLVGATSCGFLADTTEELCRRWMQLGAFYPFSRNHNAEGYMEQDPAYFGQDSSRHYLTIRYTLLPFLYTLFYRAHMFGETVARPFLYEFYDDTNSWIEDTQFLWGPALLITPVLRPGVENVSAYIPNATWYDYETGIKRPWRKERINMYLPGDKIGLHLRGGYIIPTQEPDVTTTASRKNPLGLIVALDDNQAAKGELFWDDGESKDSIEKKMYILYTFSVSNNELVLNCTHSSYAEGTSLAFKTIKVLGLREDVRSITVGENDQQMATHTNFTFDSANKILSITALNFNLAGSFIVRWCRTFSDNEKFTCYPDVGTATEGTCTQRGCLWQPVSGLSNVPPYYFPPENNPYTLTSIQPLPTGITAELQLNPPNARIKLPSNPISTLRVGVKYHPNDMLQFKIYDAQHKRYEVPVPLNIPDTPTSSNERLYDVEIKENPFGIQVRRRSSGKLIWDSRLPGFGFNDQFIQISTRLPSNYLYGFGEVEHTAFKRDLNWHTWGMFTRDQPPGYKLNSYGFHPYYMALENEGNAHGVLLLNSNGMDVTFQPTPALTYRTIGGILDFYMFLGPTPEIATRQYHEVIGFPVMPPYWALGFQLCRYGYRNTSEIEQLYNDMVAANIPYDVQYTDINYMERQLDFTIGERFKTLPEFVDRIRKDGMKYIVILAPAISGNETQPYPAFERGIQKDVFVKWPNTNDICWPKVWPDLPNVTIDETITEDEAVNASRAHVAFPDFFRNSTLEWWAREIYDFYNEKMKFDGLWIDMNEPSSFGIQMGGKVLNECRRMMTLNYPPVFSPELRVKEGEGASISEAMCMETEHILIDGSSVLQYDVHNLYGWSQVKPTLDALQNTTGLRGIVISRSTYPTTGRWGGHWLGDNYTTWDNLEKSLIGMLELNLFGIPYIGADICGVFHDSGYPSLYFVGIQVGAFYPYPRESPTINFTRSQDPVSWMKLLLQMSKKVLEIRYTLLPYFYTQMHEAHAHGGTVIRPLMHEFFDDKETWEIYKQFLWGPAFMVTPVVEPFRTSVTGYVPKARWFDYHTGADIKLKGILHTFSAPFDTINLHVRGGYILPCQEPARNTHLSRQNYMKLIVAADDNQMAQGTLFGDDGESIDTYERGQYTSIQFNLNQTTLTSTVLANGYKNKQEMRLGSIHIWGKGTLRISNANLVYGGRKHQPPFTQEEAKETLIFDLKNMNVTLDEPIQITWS

The target of experiment [2] is T1, sucrase. The experiment can be described thus: Enzyme-kinetic analysis on sucrase (Lineweaver–Burk plots). The class given is biochemical, Wistar rats. Particulars: from LB plots. The procedure: as §1
Lineweaver–Burk double reciprocal plots (LB plots) were then obtained to calculate the kinetic constants and evaluate inhibitory type, the equation is as follows: 1/V = (Km + [S])/(Vmax[S]) = (Km/Vmax) * (1/[S]) + (1/Vmax),
In this equation, [S] denotes the concentration of substrate, V represents the enzyme reaction velocity and Km is the Michaelis–Menten constant.

This is an account of results in paper PMC6539310, “Investigation on the Enzymatic Profile of Mulberry Alkaloids by Enzymatic Study and Molecular Docking” (Molecules, 2019).

Read-outs that look alike come from different tables or passages of the source.

As usually defined, the IC50 is the concentration needed to halve the response being measured. Usually Ki stands for a dissociation constant, usually derived from enzyme kinetics or from competition with a known ligand. A low value points to tighter binding.

As for `C[C@H]1O[C@H](O[C@H]2[C@H](O)[C@@H](O)[C@@H](O[C@H]3[C@H](O)[C@@H](O)C(O)O[C@@H]3CO)O[C@@H]2CO)[C@H](O)[C@@H](O)[C@@H]1N[C@H]1C=C(CO)[C@@H](O)[C@H](O)[C@H]1O` (stereo partly drawn) [Acarbose, acarbose, reference compound], the IC50 on sucrase [1] (converted from μmol/L by mol wt, read-out: Sucrase IC50 after conversion according to the molecular weight (converted)) is 1050 nM; at sucrase [1] (read-out: Sucrase Inhibition IC50), 1050 nM. Besides, the Ki at sucrase [2] is 53.2 nM.
